Reference: paper PMC4854767 (2016)

Sequences of proteins named here, by UniProt entry; tags and fusion partners are left off.
UniProt P03372, whole entry: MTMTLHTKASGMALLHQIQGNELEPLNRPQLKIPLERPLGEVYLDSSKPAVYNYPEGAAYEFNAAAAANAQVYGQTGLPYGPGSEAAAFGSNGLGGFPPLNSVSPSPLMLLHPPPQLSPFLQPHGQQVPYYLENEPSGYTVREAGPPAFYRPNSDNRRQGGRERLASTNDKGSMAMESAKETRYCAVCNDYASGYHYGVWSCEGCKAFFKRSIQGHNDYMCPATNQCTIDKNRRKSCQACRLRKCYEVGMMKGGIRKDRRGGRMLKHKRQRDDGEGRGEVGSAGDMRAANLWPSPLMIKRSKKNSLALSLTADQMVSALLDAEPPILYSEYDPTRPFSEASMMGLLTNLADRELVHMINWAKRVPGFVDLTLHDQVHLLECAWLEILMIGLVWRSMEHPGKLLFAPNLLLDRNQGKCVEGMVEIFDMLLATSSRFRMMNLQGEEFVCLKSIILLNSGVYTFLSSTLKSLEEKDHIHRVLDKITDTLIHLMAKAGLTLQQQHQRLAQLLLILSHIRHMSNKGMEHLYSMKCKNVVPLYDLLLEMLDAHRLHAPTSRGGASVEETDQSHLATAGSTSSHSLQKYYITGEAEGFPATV

What was measured:
[1] = tested on: MCF-7 tumors; experiment: IHC for geminin and Ki67 in MCF-7 tumors; conditions: single-agent fulv; baseline 52.1%
[2] = target: ER (Homo sapiens, UniProt P03372); experiment: Duration of ER inhibition in MCF-7 tumors by fulv clinical formulation; conditions: 5 mg/wk s.c., data not shown

**Q.** With `C[C@]12CC[C@@H]3c4ccc(O)cc4C[C@@H](CCCCCCCCC[S+]([O-])CCCC(F)(F)C(F)(F)F)[C@H]3[C@@H]1CC[C@@H]2O` (some centres unmarked) [fulv] as the compound, how does the “geminin/Ki67 ratio (tumor cell proliferation)” value [1] read?
**A.** 34.9%

**Q.** And the “duration of ER inhibition in MCF-7 tumors” value [2]?
**A.** ≥ 8 days
